# Measurements reported in patent publication US20230159442A1 (published 2023).
# Test: Saturated aqueous solubility determination
substance,measurement,setting,value
creatine amide ethyl ester,Solubility,"deionized water, 25° C., 1.5 hour",>600 mg/mL
same,Ratio (relative to CM),solubility relative to creatine monohydrate,>29
